Results: patent publication US20020035061A1, “COMPOSITIONS AND METHODS FOR TREATING INFECTIONS USING CATIONIC PEPTIDES ALONE OR IN COMBINATION WITH ANTIBIOTICS” (priority 1996, published 2002)
“And” between values parts separate entries of the source, which are not always exact repeats. Equal values may be shown once.

Key:
[1] = tested on: sheep RBC; assay: Red blood cell (RBC) lysis assay, standardized conditions (1% RBC); format: cell-based; settings: 1% (v/v) sheep RBC, 500 μg/ml peptide, pH 6-7
[2] = Circular dichroism spectroscopy; format: physicochemical
[3] = Toxicity of APO-modified and unmodified MBI 11CN, single iv dose; format: in vivo, Swiss CD-1 mice
[4] = tested on: S. pyogenes; assay: Agarose dilution assay (MIC); format: cell-based; settings: S. pyogenes SPY003
[5] = Single and multiple dose toxicity, intravenous injection, formulations; format: in vivo, outbred ICR mice
[6] = Acute single dose toxicity, subcutaneous route; format: in vivo, Swiss CD1 mice
Description: (§1) The acute, single dose toxicity of various indolicidin analogues is tested in Swiss CD1 mice using various routes of administration. In order to determine the inherent toxicities of the peptide analogues in the absence of any formulation/delivery vehicle effects, the peptides are all administered in isotonic saline with the final pH between 6 and 7.
Subcutaneous route. The toxicity of MBI 11CN is also determined after subcutaneous (SC) administration. […]. After administration, the mice are observed for a period of 5 days. None of the animals died at any of the dose levels within the 5 day observation period. […]. […] These symptoms are reversible, disappearing in all mice by the second day of observations.

[7] = tested on: mammalian red blood cells
[8] = Reversed phase HPLC analysis of peptide analogue formulations; format: physicochemical; settings: 400 μg/mL in formulation D
Description: Reversed-phase HPLC, which provides an analytical method for peptide quantification, is used to examine peptides in two different formulations. A 400 μg/mL solution of MBI 11CN prepared in formulations C1 and D is analyzed by using a stepwise gradient to resolve free peptide from other species. Standard chromatographic conditions are used as follows:
Solvent A: 0.1% trifluoroacetic acid (TFA) in water
Solvent B: 0.1% TFA/95% acetonitrile in water
Media: POROS® R2-20 (polystyrene divinylbenzene)

[9] = Peptide levels in blood in vivo after intraperitoneal injection; design: species or system CD1 ICRBR strain mice; settings: ip 40 mg/kg, formulation C1
Description: In addition, MBI 11CN is also administered to CD1 ICRBR strain mice by a single ip injection at an efficacious dose level of 40 mg/kg. Peptide is administered in both formulations C1 and D to determine if peptide complexation has any effect on blood levels. At various times post injection, mice are anesthetized and blood is drawn by cardiac puncture. Blood is collected and analyzed as for the iv injection.
In contrast, peptide in formulation D is present at a level above 2 μg/ml for approximately two hours. Therefore, formulation affects entry into, and maintenance of levels of peptide in the blood.
At set times post-injection, each group of animals are anesthetized, blood is drawn, and plasma obtained by centrifugation. The amount of peptide or agent in the plasma supernatant is analyzed as for the in vitro determination.

[10] = Acute single dose toxicity, intraperitoneal route, isotonic saline; format: in vivo; settings: Swiss CD1 mice, 5 days
Description: In vivo toxicity of a peptide is measured through administration of a range of doses to animals, typically mice, by a route defined in part by the intended clinical use. The survival of the animals is recorded and LD50, LD90-100, and maximum tolerated dose (MTD) can be calculated to enable comparison of analogues. Indolicidin analogues less toxic than indolicidin are preferred.
as §1
Intraperitoneal route. Groups of 6 mice are injected with peptide doses of between 80 and 5 mg/kg in 500 μl dose volumes. […] The LD50 values are calculated using the method of Reed and Muench (J. of Amer. Hyg. 27:493-497, 1938).

[11] = Single dose toxicity, intraperitoneal injection, formulations; format: in vivo, outbred ICR mice
Description: The single dose toxicity of a cationic peptide and antibiotic agent combination is examined in outbred ICR mice. Intraperitoneal injection of the combination in isotonic saline is carried out at increasing dose levels. The survival of the animals is monitored for 7 days. The number of animals surviving at each dose level is used to determine the maximum tolerated dose (MTD). In addition, the MTD can be determined after administration of the peptide and agent by different routes, at different time points, and in different formulations.
The single dose toxicity of MBI 10CN and MBI 11CN is examined in outbred ICR mice (Table 32).
The single dose toxicity of MBI 10CN and MBI 11CN in different formulations is also examined in outbred ICR mice (Table 36). Intraperitoneal injection (groups of 2 mice) of MBI 10CN in formulation D show no toxicity up to 29 mg/kg and under the same conditions MBI 11CN show no toxicity up to 40 mg/kg.

[12] = In vitro lifetime of free peptide in plasma and blood; format: in vitro ADME, sheep; settings: for apparent half-life of free peptide in blood: sheep plasma, 37° C., 100 μg/mL
[13] = 3 mg/kg single iv dose, 0.9% saline
[14] = 5 mg/kg single iv dose, 0.9% saline
[15] = 8 mg/kg single iv dose, 0.9% saline
[16] = 10 mg/kg single iv dose, 0.9% saline
[17] = 13 mg/kg single iv dose, 0.9% saline
[18] = single iv dose, 0.9% saline, Swiss CD-1 mice
[19] = iv, formulation D, 2 injections of 4.1 mg/kg, 10 min interval

For ILKKWPWWPWRRK [MBI 11CN], the “% lysis at 500 μg/ml” value [1] was 9%, the “min λ, Phosphate buffer” value ([2]; CD spectrum, 10 mM sodium phosphate buffer, pH 7.2) was 200 nm and the “min λ, TFE” value ([2]; CD spectrum, phosphate buffer and 40% (v/v) trifluoroethanol) was 200 nm. For the same sequence, the Conformation in buffer ([2]; CD, 10 mM sodium phosphate buffer, pH 7.2) was “Unordered”, the “Conformation in TFE” value ([2]; CD, phosphate buffer and 40% (v/v) trifluoroethanol) was “Unordered” and the “% Dead” value [3, 13] was 0%. For the same sequence, the “Cumulative No. Dead” value [3, 13] was 0, the “Cumulative No. Surviving” value [3, 13] was 12 and the “% Dead” value [3, 14] was 0%. For the same sequence, the “Cumulative No. Dead” value [3, 14] was 0, the “Cumulative No. Surviving” value [3, 14] was 6 and the “% Dead” value [3, 15] was 100%. For the same sequence, the “Cumulative No. Dead” value [3, 15] was 6, the “Cumulative No. Surviving” value [3, 15] was 0 and the “% Dead” value [3, 16] was 100%. For the same sequence, the “Cumulative No. Dead” value [3, 16] was 12, the “Cumulative No. Surviving” value [3, 16] was 0 and the “% Dead” value [3, 17] was 100%. For the same sequence, the “Cumulative No. Dead” value [3, 17] was 18, the “Cumulative No. Surviving” value [3, 17] was 0 and the LD50 ([3]; single iv dose in 0.9% saline) was 7 mg/kg. The “dose with all subjects dying” value ([3]; single iv dose in 0.9% saline) was 8 mg/mL, the “highest dose giving 100% survival” value ([3]; single iv dose in 0.9% saline) was 5 mg/kg and the LD50 [3, 18] was 7 mg/kg. It also gave an LD90-100 [3, 18] of 8 mg/kg, an MTD [3, 18] of 5 mg/kg and an MIC [4] of 8 µg/mL. The MTD ([5]; Intravenous injection, single dose, outbred ICR mice (Table 32)) was 6.1 mg/kg, the MTD ([5]; iv, formulation C (lyophilized)) was 3.0 mg/kg and the toxicity ([5]; iv, formulation C (lyophilized), 6.1 mg/kg) was 10%. For the same sequence, the toxicity ([5]; iv, formulation C (lyophilized), 12 mg/kg) was 100%, the MTD ([5]; iv, formulation C (lyophilized), ICR mice) was 3.0 mg/kg and the “Result (mortality)” value [5, 19] was 66%. The “Result (toxicity)” value [5, 19] was 66% toxicity, the toxicity ([5]; iv, non-lyophilized solution, formulation C1, 3.0 mg/kg) was 100% and the “toxicity (mortality)” value ([5]; iv, two injections of 4.1 mg/kg with a 10 minute interval) was 60%. For the same sequence, the LD50 [6] was “greater than 128 mg/kg”, the LD90-100 [6] was “greater than 128 mg/kg” and the MTD [6] was “greater than 128 mg/kg”. The lysis [7] was 3.2%, the “red blood cell lysis” value [7] was “substantial lysis” and the “% Lysis” value ([7]; […], 37° C., 1 hour) was 0.8%. The free peptide peak [8] was under 10%, the “blood level after 60 minutes” value [9] was “non-detectable levels” and the LD50 [10] was 34 mg/kg. For the same sequence, the LD90-100 [10] was 40 mg/kg, the MTD [10] was 20 mg/kg and the MTD ([11]; Intraperitoneal injection, single dose, outbred ICR mice (Table 32)) was over 40 mg/kg. The MTD ([11]; ip, formulation D, ICR mice) was 40 mg/kg and >40 mg/kg, the “dose showing no toxicity” value ([11]; ip, formulation D, groups of 2 mice) was “up to 40 mg/kg” and the “peptide immediately released from formulation-peptide complex” value ([12]; formulation D, on addition to the blood) was “up to 50%”. The “apparent half-life of free peptide in blood” value ([12]; formulation C1) was 1.5 h, the “apparent half-life of free peptide in blood” value ([12]; formulation D) was 1.5 h and the “resistance to plasma peptidases and proteases” value ([12]; sheep's blood) was “relatively resistant to plasma peptidases and proteases”.
